{"sequences": {"note": "By UniProt entry, the sequences of proteins in these tests, tags left out.", "UniProt P47936, whole entry": "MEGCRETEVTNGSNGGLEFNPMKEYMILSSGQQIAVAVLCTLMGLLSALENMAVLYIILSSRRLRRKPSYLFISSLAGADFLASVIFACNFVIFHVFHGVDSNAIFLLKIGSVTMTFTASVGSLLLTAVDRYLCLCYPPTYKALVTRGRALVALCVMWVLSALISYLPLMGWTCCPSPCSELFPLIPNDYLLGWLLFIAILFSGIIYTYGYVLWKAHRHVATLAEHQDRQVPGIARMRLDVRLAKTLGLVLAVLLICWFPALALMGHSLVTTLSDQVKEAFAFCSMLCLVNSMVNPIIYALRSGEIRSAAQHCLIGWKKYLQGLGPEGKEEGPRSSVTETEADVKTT"}, "source": "patent US8367714B2", "about": "“Cannabinoid receptor targeted agent” (Vanderbilt University, priority 2007, dated 2013)", "biological_target": "mouse CB2 receptors (Mus musculus, UniProt P47936)", "assay": "Displacement of [3H]-SR144528 binding to membrane fractions from DBT cells stably expressing mouse CB2 receptors", "details": "displacement of [3H]-SR144528, membranes of DBT cells expressing mouse CB2", "protocol": "One NIR dye labeled conjugable SR144528 (NIRmbc94 or SR-NIR) was tested for its ability to displace the binding of [^3H]-SR144528 to membrane fractions from DBT cells stably expressing mouse CB2 receptors.", "note": "pKi: −log10 of the molar value."}
{"smiles": "Cc1cc(-c2cc(C(=O)NC3C4(C)CCC(C4)C3(C)C)nn2Cc2ccc(CNCCCCCCN)cc2)ccc1Cl", "note": "(stereo not shown)", "values": [{"measurement": "pKi", "value": 7.82}]}
